In patent US20040209956A1, “S-[2-[(1-Iminoethyl)amino]ethyl]-2-methyl-L-cysteine maleate form II crystalline salt” (priority 2003, published 2004):

Test: Solubility experiments in acetonitrile/water with and without excess maleic acid
Format: physicochemical
Protocol: Attempts were made to study the solubility of S-[2-[(1-Iminoethyl)amino]ethyl]-2-methyl-L-cysteine maleate Form II crystalline salt at 5° C. in 70/30 v/v acetonitrile/water with and without excess (1 molar equivalent) maleic acid and in 90/10 v/v acetonitrile/water with one molar equivalent excess maleic acid All three experimental vials were prepared by adding approximately 90 mg of S-[2-[(1-Iminoethyl)amino]ethyl]-2-methyl-L-cysteine maleate crystalline salt and 30 mg of maleic acid to approximately 300 mg of binary solvent. These vials were then placed in a shaker bath at 5° C. After four days of equilibration when the vials were observed, it was discovered that the system had turned from a suspension of solids in a single liquid phase to a biphasic liquid with no suspended solids. Both layers from each of the three vials were analyzed for water content (through Karl-Fischer analysis) and concentration of the compound. […] It is worth pointing out though that the exact conditions leading to measured concentrations in the top layer could only be truly established when the partitioning of excess maleic acid is established between the two layers. The bottom layer (rich in water) would most likely be under-saturated since no excess solids remained. This possibility is substantiated by the solubility data on the bottom layer, where the concentrations are found to be very similar across all the experiments. While the vial at 70/30 acetonitrile/water with excess maleic acid remained biphasic even after nineteen days, the 70/30 acetonitrile/water vial without any excess maleic acid after five days had some very large crystals floating in a solution that still seemed biphasic. […] These crystals were used to obtain crystallography data. After nineteen days of equilibration at 5° C., the 90/10 acetonitrile/water vial with excess maleic acid had turned back into a slurry of solids in a single liquid phase. […] The fact that 70/30 vial with excess maleic acid remained biphasic and more importantly without any re-crystallized solids could be because of the higher solubility resulting from excess maleic acid (compared to 70/30 vial without excess malice acid) and higher water content (compared to the 90/10 vial with excess maleic acid). Equally interesting to note is that the two vials where crystallization did occur from biphasic solvent systems had form II crystals in them at the time of isolation.

- Concentration: 1.02 Wt %
- Concentration (70/30 ACN/Water (1x excess maleic acid), Bottom Layer (rich in water, most likely under-saturated), 5° C., four days): 5.40 Wt %
- Concentration (70/30 ACN/Water (1x excess maleic acid), Top Layer (acetonitrile rich) of biphasic liquid, 5° C., four days): 2.71 Wt %
- Concentration (70/30 ACN/Water (no excess maleic acid), Bottom Layer (rich in water, most likely under-saturated), 5° C., four days): 6.68 Wt %
- Concentration (90/10 ACN/Water (1x excess maleic acid), Bottom Layer (rich in water, most likely under-saturated), 5° C., four days): 5.28 Wt %
- Concentration (90/10 ACN/Water (1x excess maleic acid), Top Layer (acetonitrile rich) of biphasic liquid, 5° C., four days): 2.67 Wt %
Substance: S-[2-[(1-Iminoethyl)amino]ethyl]-2-methyl-L-cysteine maleate crystalline salt Form II

Where two headings read alike, the source gives them in different places.
